Test results reported in PubChem BioAssay AID1645848.

Conditions: buffer; pH 7.4; 6.0 h; 150.0 µM

CC(=O)NC(SC(=S)N(C)C)C(Cl)(Cl)Cl (stereo unspecified)
solubility kinetic: > 0.046 mg/mL
